According to patent US20070154546A1, “Sustained release pharmaceutical compositions” (priority 2005, published 2007):

Legend:
[1] = background statement; cited from earlier work
[2] = 150 mg, IM administration; cited from earlier work
[3] = In vitro solubility in human serum; conditions: calculated as montelukast sodium; HPLC method

Substance | Solubility in human serum [1] | Duration of slow dissolution and release [2] | Solubility in human serum [3]
medroxyprogesterone | 42 µg/mL | up to three months | –
montelukast cetyl-pyridinium [Example 13] | – | – | 1100 µg/mL
montelukast lauro-cholinium [Example 11] | – | – | 2800 µg/mL
montelukast palmito-cholinium [Example 12] | – | – | 1600 µg/mL

Where two headings read alike, the source gives them in different places.
